Hits are enriched below; roughly 1.3% of the tested compounds scored in any of these assays.
ERG Ets-DNA blk: inhibitors of human ERG Ets domain-DNA interaction; P11308; Potency, µM (titrated, usually from 76.9 µM), without a hit: at the highest dose FP activity, negative = inhibition, usual class: inhibitors; AID 624246; 370,000 compounds, 0.028% hits; fluorescence polarization, His-ERG Ets domain / labelled DNA; active = well fitted inhibition curve with a large enough effect in the polarisation, with a control signal flat; inconclusive = small, poorly fitted or top-dose-only effect, or effect the other way, or a change in a side signal; inactive = no such curve, though single readings can be large or run the other way; the % refers to the polarisation;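 note: polarization taken with two DNA probes labelled with fluorescein and Texas red; potency is the fitted concentration of half-maximal effect; % of control where 0% means no effect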
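His-tagged ERG Ets domain (1 uM in the protein solution; 300mM KCl, 50mM Tris-HCl, 1mM EDTA, 1mM DTT, pH 7.5) received compound, then a probe mix of 5 nM fluorescein-DNA and 100nM Texas-615-DNA. Fluorescence polarization was read for both dyes.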
PINK1 modulator: changes PINK1 expression. Potency, µM (series often up to 76.6 µM), without a hit: top-dose activation (PINK1 increase), most hits filed as activators. PINK1 immunofluorescence, high-content cytometry, 24 h. AID 624263. 410,000 compounds, 0.2% hits; active = well fitted activation curve with a large enough effect; inconclusive = small, poorly fitted or top-dose-only effect; cell line not stated here; note: potency is the fitted concentration of half-maximal effect; % of control where 0% means no effect; nearly all actives have a fitted effect of over 65% in size
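Fluorescence from anti-PINK1 antibody, together with nuclear and cell stains, was scanned on a laser-scanning cytometer. Before staining, stable-line cells were incubated 24 hours with compounds at 5 concentrations; primary antibody 12 h at 10 degrees C.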
12-LOX inh: inhibitors of human 12S-lipoxygenase ALOX12 | P18054 | purified 12hLO, xylenol orange hydroperoxide absorbance | Potency, µM (series often up to 108 µM), for the others: at the highest dose activity change, negative = inhibition, most hits filed as inhibitors | 580,000 compounds, 1.1% hits; note: potency is the fitted concentration of half-maximal effect; % is set by controls: 0 for no effect and ±100 for the full control effect
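Hydroperoxide product was detected by ferrous iron/xylenol orange as the 573 to 405 nm absorbance ratio. Arachidonic acid at 40 uM (final) was turned over for 30 min at room temperature by 150 nM human 12hLO, pH 7.0 Hepes buffer, after 15 min compound preincubation.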
PTHR1 agonist: activates the human parathyroid hormone receptor PTHR1; Q03431; HEK293 GP2 PTHR1 cells, GloSensor cAMP luminescence, 1 h; Potency, µM (top dose mostly 115 µM), without a hit: at the top dose activation, most hits filed as activators; 410,000 compounds, 0.075% hits; note: potency is the fitted concentration of half-maximal effect; nearly all actives have a fitted effect of over 55% in size
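HEK-293-derived GP2 cells expressing PTHR1 and a GloSensor cAMP reporter, 3,000/well, plated overnight, given luciferin plus IBMX (each 0.5 mM as added) for 1 h at 37 °C, then compound for 1 h at 37 °C. Luminescence was read after 15 min at room temperature.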
Giardia killer: Giardia lamblia killing | Giardia lamblia trophozoite viability | activity change, % at 7.66 µM, hits read low | 340,000 compounds, 0.15% hits | AID 540267; in the data active = activity change below about -80%; inconclusive = between about -30% and that limit;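 note: parasites exposed to compound for two days anaerobically before the ATP read; % is set by controls: 0 for no effect and ±100 for the full control effect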
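Trophozoite viability was measured as ATP-dependent luminescence, read 15-30 min after reagent addition. Before that, parasites at 100 cells/well were exposed to compounds for 48 h, anaerobically, at 37 deg C.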
miR-21 FLuc: raises the signal of a miR-21 reporter; HeLa miR-21 FLuc reporter, luciferase, 48 h; Potency, µM (top dose mostly 38.3 µM), for inactives: at the highest dose reporter change, positive = more light; AID 2288; 340,000 tested, under 10 active; active = well fitted rising curve with a large enough effect; inconclusive = small, poorly fitted or top-dose-only effect; inactive = no such curve, though single readings can be large or run the other way;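 note: % of control where 0% means no effect; miR-21 action dims this reporter so a rising signal means less miR-21 action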
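HeLa cells stably expressing CMV-driven firefly luciferase with a downstream miR-21 binding sequence, endogenously expressing miR-21, were treated with titrations (up to about 40uM final) for 48 hours at 37 degree Celsius. Luciferase luminescence was read after lysis.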
The depositor's hits bear a star; i = inactive; ? = inconclusive; · = no result; ! = not confirmed by another sample; [ ] = remark or other dose. Unless noted, calls come from the whole dose curve; as a rule, active = well fitted curve in the direction sought with a large enough effect; inconclusive = small, poorly fitted or top-dose-only effect, or another doubt; inactive = no such curve, though single readings can be large; an effect the other way counts as inactive or inconclusive.

Sequence of screens – ERG Ets-DNA blk	PINK1 modulator	12-LOX inh	PTHR1 agonist	Giardia killer	miR-21 FLuc
- N#CC(C#N)=C(N)/C(C#N)=C/c1cc(O)c(O)c(O)c1
 : 65%	3%	5µM*!	i	-15	·
- COCCOC(=O)/C(C#N)=C\c1cc(C)c(O)c(C)c1
 : ·	·	39%	·	·	·
- O=C(NCC1CCOC1)C1CCN(c2nc(-c3ccccc3)nc3c2CCC3)CC1 (stereo not given)
 : ·	·	23%	·	·	·
- Cc1ccc(N2C(=O)[C@@H]3[C@H](C2=O)[C@H]2C=CC=NN2[C@@H]3C(=O)Nc2ccc(Cl)cc2)cc1
 : -5%	1%	10µM*	-3%	22	-3%
- Cc1c(C(=O)OCC2CCCO2)[nH]c2c1C(=O)CC(c1ccc(N(C)C)cc1)C2 (stereo not given)
 : 0%	2%	6.3µM*	-93%	7	4%
- Cc1c(C(=O)OCc2ccccc2)[nH]c2c1C(=O)CC(c1ccc(N(C)C)cc1)C2 (stereo not given)
 : 3%	2%	-9%	i	·	-1%
- CN(Nc1cccc(Cl)c1)c1cccc(Cl)c1
 : 3%	7%	32µM*	-42%	0	·
- COc1cccc(CN(C)Cc2c(O)ccc3ccccc23)c1
 : 2%	-1%	10µM*	-17%	-6	-2%
- COc1ccc2ccc(O)c(CN(C)CC(=O)Nc3ccccc3C(F)(F)F)c2c1
 : 0%	5%	7.1µM*	-20%	7	5%
- COc1ccc(CN(C)Cc2c(O)ccc3ccccc23)cc1
 : -6%	3%	10µM*	i	-25	-1%
- COc1ccc2ccccc2c1CN(C)Cc1ccccc1
 : 15%	14%	0%	2%	5	1%
- Cc1noc(C)c1[S+](=O)([O-])N1CCC2OCCN(Cc3ccccc3)C(=O)C2C1 (stereo not given)
 : ·	·	100µM*	·	·	·
- COCCNC(=O)C(c1ccc(F)cc1)N(C(=O)CCC(=O)Nc1ccccn1)c1cccc(C)c1 (stereo not given)
 : -5%	0%	-2%	-14%	-7	1%
- O=C(c1ccc(Cl)cc1)N1CCOCC2(CN(Cc3cc(F)cc(F)c3)C2)C1
 : ·	·	-3%[176 µM]	·	·	·
- CC1CCCN(c2ccc(C(=O)O)cc2NS(=O)(=O)c2ccc(Br)s2)C1 (stereo not given)
 : ·	·	5.6µM*	·	·	·
- CCOc1ccccc1CNS(=O)(=O)c1ccc2c(c1)oc(=O)n2C
 : 2%	0%	4µM*	-23%	23	-5%
- CCOc1ccccc1NS(=O)(=O)c1ccc2c(c1)oc(=O)n2C
 : -2%	1%	-16%	6%	·	-3%
- Cc1nccc(-c2cccc(N/N=C(\C#N)C(=O)c3ccccc3)c2)n1
 : -8%	10%	224%	-34%	?	-3%
- N#C/C(=N\Nc1cccc(C(F)(F)F)c1)C(=O)c1ccsc1
 : -8%	11µM*	?	-29%	6	20%
- C/C(=N\Nc1ccc(C)c(Cl)c1)c1cccnc1
 : -4%	-2%	4.5µM*	-2%	-4	-63%

Given with tabs: entries from further up.
SMILES	ERG Ets-DNA blk	PINK1 modulator	12-LOX inh	PTHR1 agonist	Giardia killer	miR-21 FLuc
O=C(c1ccc(Cl)cc1)N1CCOCC2(CN(Cc3cc(F)cc(F)c3)C2)C1	·	·	-3%[176 µM]	·	·	·
CC1CCCN(c2ccc(C(=O)O)cc2NS(=O)(=O)c2ccc(Br)s2)C1 (stereo not given)	·	·	5.6µM*	·	·	·
CCOc1ccccc1CNS(=O)(=O)c1ccc2c(c1)oc(=O)n2C	2%	0%	4µM*	-23%	23	-5%

Remaining list, next part.
Sequence of screens – ERG Ets-DNA blk	PINK1 modulator	12-LOX inh	PTHR1 agonist	Giardia killer	miR-21 FLuc
- C/C(=N\NC(=O)C(=O)Nc1ccc(C)c(Cl)c1)c1ccncc1
 : 1%	3%	8%	-20%	3	2%
- C/C(=N\NC(=O)Cc1ccc(Cl)c(Cl)c1)c1cccnc1
 : -5%	0%	18%	-38%	-3	-6%
- C/C(=N\Nc1ccc(C)c(Cl)c1)c1ccncc1
 : 13%	3%	45µM*	-22%	2	-39%
- O=C(CSc1nc2ccccc2s1)Nc1nc2ccccc2s1
 : ·	·	-10%	·	·	·
- Cc1nc(NC(=O)CSc2nc3ccccc3s2)sc1C(=O)N(C)C
 : -4%	2%	40µM*	i	19	-14%
- O=C(CSc1nc2ccccc2s1)Nc1ccc(F)cc1F
 : ·	·	47%	·	·	·
- O=C(CSc1nc2ccccc2s1)Nc1ccc(F)c(F)c1
 : ·	·	35µM*	·	·	·
- CCC(=O)Nc1ccc2nc(SCc3ccc(C)cc3)sc2c1
 : 7%	2%	-24%	-22%	·	-18%
- CCC(=O)Nc1ccc2nc(SCc3ccc(F)cc3)sc2c1
 : ·	·	14µM*	·	·	·
- Cc1ccc(-c2csc(=Nc3ccc(F)cc3)n2Cc2ccc3c(c2)OCO3)cc1C
 : ?	2%	?	-1%	·	21%
- CCc1cc(-c2n[nH]c(C)c2-c2ccccc2Cl)c(O)cc1OC
 : 9%	6%	40µM*	?	12	2%
- CCN(C1CCCCC1)S(=O)(=O)c1c(C)n(C)c(=O)n(C)c1=O
 : 3%	-3%	-26%	-23%	-7	·
- Cn1c(SCC(=O)N2CCc3ccccc32)nnc1-c1cccc(NC(=O)c2ccccc2F)c1
 : ·	·	35µM*	·	·	·
- C[C@H]1COC(=O)CCC/C=C\C[C@H](CC(=O)N(CCO)Cc2ccccc2)C(=O)N1
 : 12%	0%	8%	i	12	·
- CC(=NNc1ccc([N+](=O)[O-])cn1)c1ccccc1
 : 1%	4%	-9%	-16%	-11	·
- CC(C=NNc1ccc([N+](=O)[O-])cn1)=Cc1ccccc1
 : -4%	28µM*	?	-13%	12	·
- CCc1noc([C@@H]2CC(F)(F)CN2C(=O)Cn2nc(C)cc2C)n1
 : ·	·	23%	·	·	·
- Cc1ccc(/C=C/C(=O)OC(C)C(=O)c2ccc(C)c(C)c2)o1 (stereo not given)
 : ·	·	6.3µM*	·	·	·
- Cc1ccc(C[n+]2cc(-c3ccc(Cl)cc3)n3c2CCC3)cc1
 : 0%	3%	-1%	-26%	7	?
- COc1ccc(OC)c(S(=O)(=O)NCC(c2ccco2)N2CCc3ccccc32)c1 (stereo not given)
 : -1%	-1%	40µM*	-8%	-8	·
- Cn1c(CNC(=O)CNS(=O)(=O)c2ccc(F)cc2F)cc(=O)n(C)c1=O
 : -10%	0%	12%	0%	-10	1%
- O=C1NN=C(c2ccc(Br)cc2)CC1c1ccc(Cl)cc1 (stereo not given)
 : -5%	-3%	40µM*	-72%	-19	8%
- CC(C)N1CCc2c(sc(N)c2C#N)C1
 : -2%	2.8µM*	71%	i	1	2%
- COc1ccc(C)cc1NCc1ccc([N+](=O)[O-])cc1
 : -12%	-1%	4%	i	19	-7%
- COc1ccc(CNCCc2ccc([N+](=O)[O-])cc2)c(OC)c1OC
 : 8%	1%	7.9µM*	i	-11	-3%
- CCN(CC)CCNS(=O)(=O)c1ccc(OC)c(Br)c1
 : -2%	-1%	3.5µM*	-2%[57.5 µM]	-10	-2%
- NC(=O)c1c(NC(=O)CN2C(=O)NC(Cc3ccccc3)C2=O)sc2c1CCC2 (stereo not given)
 : -18%	0%	-23%	i	-1	-6%
- N#Cc1ccc(CCC(=O)O)cc1
 : ·	·	28µM*	·	·	·
- N#Cc1ccc(CCC(=O)OCc2ccc(C#N)cc2)cc1
 : ·	·	-4%	·	·	·

Compounds shown so far containing an NH in an aromatic ring:
Sequence of screens – ERG Ets-DNA blk	PINK1 modulator	12-LOX inh	PTHR1 agonist	Giardia killer	miR-21 FLuc
- Cc1c(C(=O)OCC2CCCO2)[nH]c2c1C(=O)CC(c1ccc(N(C)C)cc1)C2 (stereo not given)
 : 0%	2%	6.3µM*	-93%	7	4%
- Cc1c(C(=O)OCc2ccccc2)[nH]c2c1C(=O)CC(c1ccc(N(C)C)cc1)C2 (stereo not given)
 : 3%	2%	-9%	i	·	-1%
- CCc1cc(-c2n[nH]c(C)c2-c2ccccc2Cl)c(O)cc1OC
 : 9%	6%	40µM*	?	12	2%
